The values below come from PubChem BioAssay AID463075 (University of Pittsburgh Molecular Library Screening Center, 2010).

Only a part is listed here, and it is no random draw. The source made the active and inactive calls.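 The calls were made as follows: active = activation, meaning protection from cell death, of at least 50% relative to plate controls; inactive = activation below 50%.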

This test in a line: rescue of FADD-deficient Jurkat cells from TNF-alpha death – single concentration, primary screen (AID 463075).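 Also: necroptosis triggered by 40 ng/mL TNF-alpha added together with compound.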 The settings on record: Jurkat FADD-/- TNF necroptosis rescue, ATP luminescence, 24 h; at 10 µM; active compounds read high; 0 = TNF only, 100 = no-TNF cells.
In the case of `COc1ccc(OP(C)(=O)Nc2ccccc2Br)cc1` (stereo not drawn), the activation (protection from cell death) is inactive: 2.81%. For the compound `COc1ccccc1OP(C)(=O)Nc1ccc(C)c(C)c1` (stereo not drawn), the activation (protection from cell death) was inactive: 0.287%. For `Cc1cc(C)cc(OP(C)(=O)Nc2cccc(C(F)(F)F)c2)c1` (stereo not drawn) the value was inactive: -0.383%; for `CP(=O)(Nc1ccc(Cl)cc1Cl)Oc1ccccc1` (stereo not drawn), inactive: 0.865%.

With `CP(=O)(OCCOc1ccccc1)OCCOc1ccccc1`, the activation (protection from cell death) was inactive: -0.606%. For `Cc1nc2ccc3ccccc3c2o1.O=[N+]([O-])c1cc([N+](=O)[O-])c(O)c([N+](=O)[O-])c1` the value was inactive: -7.34%. In the case of `CN(C)CCOC(=O)C(O)(c1ccccc1)C1CCCC1` (stereo not drawn), the activation (protection from cell death) is inactive: 0.0781%. For `COc1ccc(OP(C)(=O)Nc2ccccn2)cc1` (stereo not drawn) the value was inactive: 1.2%. For `COc1ccccc1OP(C)(=O)Nc1ccc(Br)cc1` (stereo not drawn) the value was inactive: 1.07%; for `CCc1ccc(OP(C)(=O)O)cc1`, inactive: -0.839%. For `COc1ccccc1OP(C)(=O)Nc1ccc(C)cc1C` (stereo not drawn) the value was inactive: -4.07%; for `CP(=O)(Nc1ccccn1)Oc1ccccc1` (stereo not drawn), inactive: -0.561%.

For `Cc1c(NP(C)(=O)Oc2ccc(C(C)C)cc2)c(=O)n(-c2ccccc2)n1C` (stereo not drawn), the activation (protection from cell death) is inactive: -1.18%.

In the case of `O=[N+]([O-])c1cc([N+](=O)[O-])c(Nc2ccccn2)c([N+](=O)[O-])c1`, the activation (protection from cell death) was inactive: -12.5%. For `CCc1ccc(OP(C)(=O)Nc2cccnc2)cc1` (stereo not drawn) the value was inactive: 0.41%; for `CP(=O)(Oc1ccccc1)N1CCOC1=O` (stereo not drawn), inactive: -4.48%. As for `O=C(OCCCN1CCCC1)C(O)(c1ccccc1)C1CCCCC1` (stereo not drawn), the activation (protection from cell death) is inactive: 2.25%. For the compound `COc1ccccc1OP(C)(=O)Nc1c(C)n(C)n(-c2ccccc2)c1=O` (stereo not drawn), the activation (protection from cell death) was inactive: 0.222%. Take `COc1ccc(OP(C)(=O)Nc2ccc(Br)cc2)cc1` (stereo not drawn): the activation (protection from cell death) is inactive: 13.9%. For the compound `CCN(CC)CC(O)COC(=O)C(O)(c1ccccc1)C1CCCCC1` (stereo not drawn), the activation (protection from cell death) was inactive: 1.35%. With `CN(C)C(=O)c1c([N+](=O)[O-])cc([N+](=O)[O-])cc1[N+](=O)[O-]`, the activation (protection from cell death) is inactive: -8.76%. As for `CP(=O)(Nc1ccc(Cl)cc1)Oc1ccc(F)cc1` (stereo not drawn), the activation (protection from cell death) is inactive: 3.47%. The result for `COc1ccccc1OP(C)(=O)Nc1ccccc1Br` (stereo not drawn) reads inactive: 0.524%; that for `CC(C)(C)c1ccc(OP(C)(=O)O)cc1`, inactive: -0.276%; that for `CP(=O)(OC12CC3CC(CC(C3)C1)C2)OC12CC3CC(CC(C3)C1)C2`, inactive: -0.763%. For `CCOC(=O)c1ccc(NP(C)(=O)Oc2ccc(Cl)cc2)cc1` (stereo not drawn) the value was inactive: 5.7%; for `COc1ccc(NP(C)(=O)Oc2ccccc2OC)cc1` (stereo not drawn), inactive: 0.125%.

For the compound `CN(C)CCOC(=O)C(O)(c1ccccc1)C1CCCCC1` (stereo not drawn), the activation (protection from cell death) is inactive: 0.274%.
